Results on 1 molecule are retold here after patent publication US20220401536A1 (published 2022).

This assay deals with Wt DD1α (full length DD1α expressed on the cell surface) (human, UniProt Q9H7M9). Briefly: latex bead binding assay on transfected 293T cells.

B1: Recombinant human PD-1-Ig (extracellular region of PD-1 fused with the immunoglobulin G Fc segment) (Fc fusion)
chain: LDSPDRPWNPPTFSPALLVVTEGDNATFTCSFSNTSESFVLNWYRMSPSNQTDKLAAFPEDRSQPGQDCRFRVTQLPNGRDFHMSVVRARRNDSGTYLCGAISLAPKAQIKESLRAELRVTERRAEVPTAHPSPSPRPAGQFQTLV
notes: domain: Fc segment; also called Ig-fused PD-1; recombinant PD-1 protein; not shown: immunoglobulin G Fc segment
For the molecule B1, the binding result is “binds”.
